Earlier results on two substances are cited in PMC11243530, “A Bicyclic Analog of the Linear Peptide Arodyn Is a Potent and Selective Kappa Opioid Receptor Antagonist” (Molecules, 2024).

The chains behind the UniProt entries cited, without tags or fusion partners. Where a name states a change or a piece, a line headed by the entry shows the natural chain unless it says otherwise.
UniProt P34975: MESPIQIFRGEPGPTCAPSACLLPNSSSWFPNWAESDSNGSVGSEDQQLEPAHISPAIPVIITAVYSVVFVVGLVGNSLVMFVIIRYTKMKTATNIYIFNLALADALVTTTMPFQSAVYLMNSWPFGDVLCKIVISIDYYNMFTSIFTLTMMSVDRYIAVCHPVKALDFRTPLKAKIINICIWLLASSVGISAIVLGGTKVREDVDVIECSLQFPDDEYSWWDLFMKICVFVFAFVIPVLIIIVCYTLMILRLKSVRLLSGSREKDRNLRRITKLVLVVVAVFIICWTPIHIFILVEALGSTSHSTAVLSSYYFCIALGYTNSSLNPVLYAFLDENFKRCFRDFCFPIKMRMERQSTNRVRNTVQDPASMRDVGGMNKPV
UniProt P33535, whole entry: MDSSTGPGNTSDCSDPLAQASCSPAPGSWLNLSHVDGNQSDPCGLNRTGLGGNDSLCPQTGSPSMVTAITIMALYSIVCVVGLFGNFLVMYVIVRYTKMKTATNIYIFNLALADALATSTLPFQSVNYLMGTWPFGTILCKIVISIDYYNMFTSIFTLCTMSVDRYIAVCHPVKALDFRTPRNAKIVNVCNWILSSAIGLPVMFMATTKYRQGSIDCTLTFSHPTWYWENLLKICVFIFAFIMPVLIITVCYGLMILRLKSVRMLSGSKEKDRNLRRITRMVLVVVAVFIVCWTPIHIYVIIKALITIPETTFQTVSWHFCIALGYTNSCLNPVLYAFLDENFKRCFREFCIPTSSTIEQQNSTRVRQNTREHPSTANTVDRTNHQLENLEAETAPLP

Series [1] addresses T1, cloned rat KOR (Rattus norvegicus, UniProt P34975).
T1 construct: expressed in transfected cells
The note with it: read-out: KOR Ki ± SEM; cited from earlier work.

Series [2] has as its target T2, cloned rat MOR (Rattus norvegicus, UniProt P33535).
T2 construct: expressed in transfected cells
Further details: method as in 2 sources, one per row (each row's own in cited_ref): ref [6] = [6]; PMID 12477343; doi:10.1021/jm025575g; 6. Bennett M.A. Murray T.F. Aldrich J.V. Identification of Arodyn, a Novel Acetylated Dynorphin A-(1–11) Analogue, as a κ Opioid Receptor Antagonist J. Med. Chem. 2002 45 5617 5619 10.1021/jm025575g 1 ||| ref [25] = [25]; doi:10.1007/s00044-021-02758-x; 25. Fang W.-J. Murray T.F. Aldrich J.V. Analogs of the κ Opioid Receptor Antagonist Arodyn Cyclized by Ring-Closing Metathesis Retain κ Opioid Receptor Affinity, Selectivity and κ Opioid Receptor Anta. The note with it: used for Ki calculation (Cheng and Prusoff); unit inferred; source of the value not stated; read-out: KD of radioligand at MOR; cited from earlier work.

For the substance “Ac[Phe^1,2,3,Arg^4,D-Ala^8]dynorphin A-(1–11)-NH2 (FFFRLRRARPK) [arodyn]”, in series [1], the Ki was 10 ± 3 nM.
As to “[D-Ala^2,MePhe^4, glyol]enkephalin [[^3H]DAMGO]”, in series [2], the Kd is 0.49 nM.
